Data published in patent US20170198353A1, “KRAS MUTATIONS AND RESISTANCE TO ANTI-EGFR TREATMENT” (Memorial Sloan- Kettering Cancer Institute, priority 2012, published 2017).

Key:
[1] = system: DiFi cells infected with a KRAS lentivirus; experiment: Viability of DiFi cells with ectopic overexpression of wild type KRAS; format: cell-based, human; conditions: ectopic overexpression of wild type KRAS in DiFi (FIG. 1e, 1f)
Experimental: (§1) Cetuximab was obtained from Pharmacy at Niguarda Ca′ Granda Hospital, Milan, Italy. AZD6244 and GSK1059615 were purchased from Sequoia Chemicals (Pangbourne, UK) and Selleck Chemicals (Houston, USA), respectively. Cell lines were seeded in 100 μi medium at appropriate density (5×10^4, 1.5×10^4 for DiFi and Lim1215 cells, respectively) in 96-well plastic culture plates. After serial dilutions, drugs in serum free medium were added to cells and medium-only containing wells were added as controls. Plates were incubated at 37° C. in 5% CO2 for 72-168 h, after which cell viability was assessed by ATP content using the CellTiter-Glo® Luminescent Assay (Promega Madison, Wis., USA).

[2] = system: patients with advanced CRC; conditions: cited from earlier work
DiFi cells = experiment: Drug viability assay (ATP content), parental DiFi cells; format: cell-based, human; conditions: one week, ATP assay (FIG. 5a)
Experimental: (§2) Cell viability was assessed by ATP content. Cells were seeded in 100 μl medium in 96-well plastic culture plates. The experimental procedures for knock in of cancer mutations, the vectors, AA V production, cell infection and screening for recombinants have already been described elsewhere.
(§3) DiFi cells were cultured in F12 medium (Invitrogen) supplemented with 5% FBS and Lim1215 cells were cultured in RPMI-1640 medium (Invitrogen) supplemented with 5% FBS and Insulin (1 μg/ml). […] For Lim1215 both protocols required at least 3 months' drug treatment. The Lim1215 parental cell line had been described previously (Whitehead, R. H., Macrae, F. A., St John, D. J. & Ma, J. A colon cancer cell line (LIM1215) derived from a patient with inherited nonpolyposis colorectal cancer. J Natl Cancer I 74, 759-765 (1985)) and was obtained from Prof Robert Whitehead, Vanderbilt University, Nashville, with permission from the Ludwig Institute for Cancer Research, Zurich, Switzerland. The genetic identity of the cell lines used in this study was confirmed by STR profiling (Cell ID, Promega)
(§4) Cetuximab was obtained from Pharmacy at Niguarda Ca′ Granda Hospital, Milan, Italy. […] Plates were incubated at 37° C. in 5% CO2 for 72-168 h, after which cell viability was assessed by ATP content using the CellTiter-Glo® Luminescent Assay (Promega Madison, Wis., USA).

Lim1215 E4.1 cells = experiment: Proliferation of Lim1215 KRAS WT subclone E4.1; format: cell-based, human; conditions: Lim1215 KRAS WT subclone E4.1 (FIG. 9C)
Experimental: As schematized in FIG. 9, two successive dilution cloning experiments were performed and the derivative cells (hereafter referred to as E4.1) were confirmed as KRAS wild-type by both mass spectrometry (MS) based genotyping and by 454 analysis. […] Cells were collected during intermediate passages and subjected to MS based genotyping and/or 454 analysis (FIG. 9a).
as §1

[3] = system: phosphorylation of MEK and ERK; experiment: Western blot analysis of phospho-MEK1/2 and phospho-ERK1/2 in cetuximab-resistant DiFi cells; format: cell-based, human; conditions: DiFi-R cells with KRAS amplification, Western blot (FIG. 1d)
Experimental: For immunoblot analysis, total cellular proteins were extracted by solubilizing the cells in boiling SDS buffer. Western blot detection was done by enhanced chemiluminescence. The analysis of KRAS activation was performed by immunoprecipitation assay with GST-Raf1-RBD. Real time PCR was performed using an ABI PRISM® 7900HT apparatus (Applied Biosystems). KRAS protein expression was evaluated by immunohistochemistry performed on 3 μm thick tissue sections using a specific KRAS (F234) antibody (SC-30, mouse monoclonal IgG2a Santa Cruz Biotechnology). […] FISH experiments were conducted according with the histology FISH accessory kit (Dako, Glostrup, Danmark). Data are presented as the mean±SD and n=3. Statistical significance was determined by paired Student's t test. P<0.05 was considered statistically significant.
Prior to biochemical analysis, all cells were grown in their specific media supplemented with 5% FBS. Total cellular proteins were extracted by solubilizing the cells in boiling SDS buffer (50 mM Tris-HCl, pH 7.5, 150 mM NaCl, and 1% SDS). Western blot detection was done by enhanced chemiluminescence (GE Healthcare). […]

[4] = system: DiFi-R cells (KRAS amplification); experiment: Drug viability assay (ATP content), cetuximab-resistant DiFi cells; format: cell-based, human; conditions: DiFi-R cells with KRAS amplification (FIG. 1a)
Experimental: as §2, §3, §4

Lim1215 cells = experiment: Drug viability assay (ATP content), parental Lim1215 cells; format: cell-based, human; conditions: one week, ATP assay (FIG. 5a)
Experimental: as §2, §3, §4

cetuximab
resistance to cetuximab [1]: conferred resistance
time to emergence of secondary resistance (disease progression), radiological evaluation [2]: 9-18 months
sensitivity to EGFR inhibition (cell viability) (DiFi cells): highly sensitive
proliferation under cetuximab treatment (Lim1215 E4.1 cells): impaired
phosphorylation of MEK and ERK [3]: partially abrogate
induction of growth arrest [4]: unable to induce growth arrest
sensitivity to cetuximab (cell viability) (Lim1215 cells): similarly sensitive
